Here are results for two compounds from patent publication US11673867B2, “Sulfonamide derivative or pharmaceutically acceptable acid-addition salt” (University of Tsukuba, priority 2017, dated 2023).

Chains of the proteins cited; added tags and fusions are not shown.
UniProt O43614, whole entry: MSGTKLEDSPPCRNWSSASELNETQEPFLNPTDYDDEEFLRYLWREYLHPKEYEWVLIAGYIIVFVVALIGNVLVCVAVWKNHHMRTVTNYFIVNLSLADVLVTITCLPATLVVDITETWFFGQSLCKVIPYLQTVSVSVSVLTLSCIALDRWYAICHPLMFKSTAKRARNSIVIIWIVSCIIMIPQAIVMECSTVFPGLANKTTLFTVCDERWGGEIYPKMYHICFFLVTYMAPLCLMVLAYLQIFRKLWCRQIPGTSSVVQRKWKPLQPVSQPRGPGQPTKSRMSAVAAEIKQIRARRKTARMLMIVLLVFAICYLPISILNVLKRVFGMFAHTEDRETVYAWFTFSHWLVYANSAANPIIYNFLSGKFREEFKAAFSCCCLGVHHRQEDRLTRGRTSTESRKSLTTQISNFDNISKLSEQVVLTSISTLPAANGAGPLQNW

One may read the EC50 as the midpoint of the concentration-response curve.

This assay addresses human OX2R (Homo sapiens, UniProt O43614). Description: Evaluation of agonist activity against OX2R (intracellular calcium, Fura-2AM, FDSS7000, CHOOX2R cells). Particulars: read-out: EC50 (agonist activity value); CHO cells expressing human OX2R; calcium fluorescence ratio 340/380 nm; 10^-11.5 M to 10^-5 M. As to the method: Evaluation of Agonist Activity Against OX2R
NAFT-luciferase gene and human OX2R gene were constitutively expressed in CHO cell, which is a cell line derived from Chinese hamster ovary to establish a cell line (CHOOX2R). The cells were seeded in a 96-well Multiplate at 10,000 cells/well and cultured in a 5% FBS (Thermo Scientific)-added DMEM medium (Sigma-Aldrich) for 48 hr. The medium was removed, an assay buffer (20 mM HEPES (Sigma-Aldrich), Hanks' balanced salt solution (Gibco), 0.1% BSA (Sigma-Aldrich), 2.5 mM probenecid acid (Wako Pure Chemical Industries, Ltd.)) (100 μL) containing 4 μM Fura-2AM (Cayman Chemical) was added, and the cells were incubated for 60 min. The buffer containing Fura-2AM was removed, and an assay buffer (75 μL) was added. An assay buffer (25 μL) containing a test compound was added thereto to start the reaction. Changes in the intracellular calcium ion concentration due to the reaction were measured by measuring the fluorescence intensity ratio by dual wavelength excitation at 340 and 380 nm, by using FDSS7000 (Hamamatsu Photonics K.K.). The test compound was dissolved in DMSO to 10 mM, and diluted with the assay buffer to a final concentration of 10^−11.5 M to 10^−5 M (final concentration of DMSO 1%).
A general note: A change in cytosolic calcium serves as a functional read-out for many receptors and channels.

Molecules are shown by their SMILES.

For `CCCOc1ccc(N2CCCN(c3cccc(NS(=O)(=O)c4cc(-c5cccc(C(=O)N(C)C)c5)ccc4OC)c3)C2=O)cc1`, the EC50 turned out to be 4.47 nM. In the case of `CCCCOc1ccc(N2CCCN(c3cccc(NS(=O)(=O)c4cc(-c5cccc(C(=O)N(C)C)c5)ccc4OC)c3)C2=O)cc1`, the half-maximal effective concentration (EC50) was 43 nM.
